{
  "sequences": {"note": "By UniProt entry, the sequences of proteins in these tests, tags left out.", "UniProt P05107, whole entry, looked up": "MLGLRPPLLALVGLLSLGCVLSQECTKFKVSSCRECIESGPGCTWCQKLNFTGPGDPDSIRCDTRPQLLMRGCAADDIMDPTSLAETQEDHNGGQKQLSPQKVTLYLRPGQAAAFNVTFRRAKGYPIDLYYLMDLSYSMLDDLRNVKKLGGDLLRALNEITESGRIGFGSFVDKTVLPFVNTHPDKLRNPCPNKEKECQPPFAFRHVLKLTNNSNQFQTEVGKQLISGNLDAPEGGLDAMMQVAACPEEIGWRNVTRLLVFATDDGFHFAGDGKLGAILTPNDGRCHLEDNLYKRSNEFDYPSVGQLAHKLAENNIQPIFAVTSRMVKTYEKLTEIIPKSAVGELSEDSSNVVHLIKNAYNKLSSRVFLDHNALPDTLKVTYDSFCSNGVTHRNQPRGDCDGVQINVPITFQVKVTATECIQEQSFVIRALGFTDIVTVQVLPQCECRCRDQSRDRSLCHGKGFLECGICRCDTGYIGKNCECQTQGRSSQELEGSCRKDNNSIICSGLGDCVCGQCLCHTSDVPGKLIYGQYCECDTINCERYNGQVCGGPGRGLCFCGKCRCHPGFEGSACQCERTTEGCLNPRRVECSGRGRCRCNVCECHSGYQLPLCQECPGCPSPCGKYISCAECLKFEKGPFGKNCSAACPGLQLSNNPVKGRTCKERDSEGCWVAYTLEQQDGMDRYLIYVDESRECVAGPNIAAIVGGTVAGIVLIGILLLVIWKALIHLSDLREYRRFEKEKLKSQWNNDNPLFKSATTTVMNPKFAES"},
  "source": "PubChem BioAssay AID1497",
  "about": "(Sanford-Burnham Center for Chemical Genomics, 2009)",
  "note": "The entries are a selection whose mix differs from that of the whole data set. Some results for these compounds are left out of this collection, so the calls shown say nothing about other tests. The source made the active and inactive calls.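 The calls were made as follows: active = primary inhibition of 50% or more at 10 µM, then 40% or more on retest; inactive = the rest.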",
  "data": [
    {"target": "Integrin beta-2 (Homo sapiens) + Integrin alpha-M (Homo sapiens) (UniProt P05107+P11215)", "test": "antagonists of integrin CD11b/CD18-fibrinogen binding – K562 cells, luminescence, primary screen (AID 1497)", "conditions": "K562 CD11b/CD18 adhesion to fibrinogen, ATPlite luminescence; at 10 µM; hits give high values; Mn2+ added to activate the integrin", "values": [
      {"smiles": "O=C(OC1CN2CCC1CC2)C(CO)(c1ccccc1)c1ccccc1", "note": "(stereo not drawn)", "inhibition": "inactive: -5.1%"},
      {"smiles": "CN(C)c1cccc(C(=O)NCC2(N(C)C)CCCCC2)c1", "inhibition": "inactive: -2.6%"},
      {"smiles": "CN(C)C1CCCC1OC(=O)C(O)(c1ccccc1)c1ccccc1", "note": "(stereo not drawn)", "inhibition": "inactive: -4%"}
    ]}
  ]
}
